Patent publication US5886026A, “Anti-angiogenic compositions and methods of use” (priority 1994, dated 1999)

What was measured:
[1] = Release from ELVAX:poly-l-lactic acid microspheres, 18 hours tumbling at 37° C.; type: physicochemical
[2] = Encapsulation of paclitaxel or baccatin in ELVAX:poly-l-lactic acid microspheres; type: physicochemical; conditions: for amount encapsulated: from 500 μg
Protocol: Microspheres are then prepared in a dissolution machine (Six-spindle dissolution tester, VanderKanp, Van Kell Industries Inc., U.S.A.) in triplicate at 200 rpm, 42° C., for 3 hours. Microspheres so prepared are washed twice in water and sized on the microscope.

released from the microspheres ([1]; fluorescence): 60% | released from the microspheres ([1]; uv/vis): 55% | encapsulated, % by weight of the polymer ([2]; fluorescence): 1.7% | encapsulated, % of original weight ([2]; fluorescence): 17% | amount encapsulated ([2]; fluorescence, baccatin): 83 ± 231 g | encapsulated, % by weight of the polymer ([2]; uv/vis): 2% | encapsulated, % of original weight ([2]; uv/vis): 20% | amount encapsulated ([2]; uv/vis): 0.0001 ± 1.5e-05 g
Substance: baccatin
